{"source": "patent US6660287B1", "about": "“Prevention of spoilage of produce using acidified expanded amorphous aluminum silicate impregnated with chlorite” (Bio-Cide International, Inc., priority 1999, dated 2003)", "origin": "cited, not measured here", "tested_on": "mice", "conditions": "subchronic and acute oral administration, mice (Meier et al.)"}
{"substance": "sodium chlorite", "values": [{"measurement": "chromosomal aberrations or increased numbers of micronuclei in the bone marrow", "result": "failed to induce any chromosomal aberrations or increased numbers of micronuclei"}]}
